Results from patent US20230357152A1 (priority 2020, published 2023).

How the values were obtained:
[1] = tested on: Phakopsora pachyrhizi (strain with F129L substitution in mitochondrial cytochrome b protein); assay: Protective control of soybean rust on soybeans, inoculation 2 days after spraying (PHAKPA P2), greenhouse; assay type: in vivo; settings: inoculation 2 days after treatment
[2] = tested on: Phakopsora pachyrhizi (strain with F129L substitution in mitochondrial cytochrome b protein); assay: Protective control of soybean rust on soybeans, inoculation 6 days after spraying (PHAKPA P6), greenhouse; assay type: in vivo; settings: inoculation 6 days after treatment
[3] = 4 ppm spray, soybean, % diseased leaf area
[4] = 16 ppm spray, soybean, % diseased leaf area
[5] = comparative trial (Table C1), 4 ppm
[6] = comparative trial (Table C1), 16 ppm

Row | SMILES | PHAKPA (F129L) Disease level (%) P2 at 4 ppm [1, 3] [%] | PHAKPA (F129L) Disease level (%) P2 at 16 ppm [1, 4] [%] | PHAKPA (F129L) Disease level (%) P6 at 4 ppm [2, 3] [%] | PHAKPA (F129L) Disease level (%) P6 at 16 ppm [2, 4] [%] | PHAKPA (F129L) Disease level (%) P2 at 4 ppm [1, 5] [%] | PHAKPA (F129L) Disease level (%) P6 at 4 ppm [2, 5] [%] | PHAKPA (F129L) Disease level (%) P2 at 16 ppm [1, 6] [%] | PHAKPA (F129L) Disease level (%) P6 at 16 ppm [2, 6] [%]
1 | CO/N=C(/C(=O)OC)c1cccc(C)c1CO/N=C(\C)c1cccc(C(F)(F)F)n1 [Example 1] | 80 | 57 | 70 | 73 | – | – | – | –
2 | CNC(=O)/C(=N/OC)c1cccc(C)c1CO/N=C(\C)c1cccc(OC)n1 [Example 3] | 50 | 8 | 60 | 28 | – | – | – | –
3 | CO/N=C(/C(=O)OC)c1cccc(C)c1CO/N=C(\C)c1cc(C(F)(F)F)ccn1 [Example 4, Methyl (2E)-2-methoxyimino-2-[3-methyl-2-[[(E)-1-[4-(trifluoromethyl)-2-pyridyl]ethylideneamino]oxymethyl]phenyl]acetate] | – | – | – | – | 9 | 12 | – | –
4 | CO/N=C(/C(=O)OC)c1cccc(C)c1CO/N=C(\C)c1cc(-c2ccc(Cl)cc2)sn1 [Example 7] | 31 | 22 | 42 | 26 | – | – | – | –
5 | CNC(=O)/C(=N/OC)c1cccc(C)c1CO/N=C(\C)c1cc(-c2ccc(Cl)cc2)sn1 [Example 8] | 73 | 27 | 53 | 40 | – | – | – | –
6 | CNC(=O)/C(=N/OC)c1cccc(C(F)(F)F)c1CO/N=C(\C)c1cc(-c2ccc(Cl)cc2)on1 [Example 17] | 100 | 100 | 90 | 93 | – | – | – | –
7 | CO/N=C(/C(=O)OC)c1cccc(C)c1CO/N=C(\C)c1cc(-c2cccc(C(F)(F)F)c2)on1 [Example 19] | 100 | 94 | 97 | 88 | – | – | – | –
8 | CNC(=O)/C(=N/OC)c1cccc(C)c1CO/N=C(\C)c1cc(-c2ccc(Cl)cc2)on1 [Example 20] | 63 | 40 | 60 | 40 | – | – | – | –
9 | CNC(=O)/C(=N/OC)c1cccc(C)c1CO/N=C(\C)c1cc(C)ccn1 [Example 26] | 63 | 11 | 90 | 73 | – | – | – | –
10 | CO/N=C(/C(=O)OC)c1cccc(C)c1CO/N=C(\C)c1cc(-c2cccc(C(F)(F)F)c2)sn1 [Example 35] | 37 | 40 | 50 | 25 | – | – | – | –
11 | CNC(=O)/C(=N/OC)c1cccc(C)c1CO/N=C(\C)c1cc(-c2ccccc2)sn1 [Example 38] | 20 | 12 | 13 | 5 | – | – | – | –
12 | CO/N=C(/C(=O)OC)c1cccc(C)c1CO/N=C(\C)c1ncsc1C(F)(F)F [Example 40] | 100 | 18 | 83 | 25 | – | – | – | –
13 | CO/N=C(/C(=O)OC)c1cccc(C)c1CO/N=C(\C)c1nccc2ccccc12 [Example 44] | 100 | 87 | 83 | 63 | – | – | – | –
14 | CNC(=O)/C(=N/OC)c1cccc(C)c1CO/N=C(\C)c1nccc2ccccc12 [Example 45] | 83 | 25 | 87 | 63 | – | – | – | –
15 | CO/N=C(/C(=O)OC)c1cccc(C)c1CO/N=C(\C)c1cn(C)nc1C(F)(F)F [Example 51] | 100 | 87 | 97 | 60 | – | – | – | –
16 | CNC(=O)/C(=N/OC)c1cccc(C)c1CO/N=C(\C)c1cc(OC)ccn1 [Example 56] | 22 | 6 | 57 | 1 | – | – | – | –
17 | CNC(=O)/C(=N/OC)c1cccc(C)c1CO/N=C(\C)c1cc(C(F)(F)F)nc(C)n1 [Example 58] | 22 | 6 | 57 | 1 | – | – | – | –
18 | CNC(=O)/C(=N/OC)c1cccc(C)c1CO/N=C(\C)c1cc2ccccc2cn1 [Example 67] | 80 | 22 | 97 | 50 | – | – | – | –
19 | CO/N=C(/C(=O)OC)c1cccc(C)c1CO/N=C(\C)c1ccc(C#CC2CC2)nc1 [Example 68] | 90 | 80 | 87 | 87 | – | – | – | –
20 | CO/N=C(/C(=O)OC)c1cccc(C)c1CO/N=C(\C)c1nccc(C(F)(F)F)n1 [Example 71] | 56 | 5 | 54 | 9 | – | – | – | –
21 | CNC(=O)/C(=N/OC)c1cccc(C)c1CO/N=C(\C)c1nccc(C(F)(F)F)n1 [Example 73] | 53 | 4 | 47 | 15 | – | – | – | –
22 | CNC(=O)/C(=N/OC)c1cccc(C)c1CO/N=C(\C)c1cncc(/C(C)=N/OC)n1 [Example 83] | 97 | 90 | 93 | 47 | – | – | – | –
23 | CO/N=C(/C(=O)OC)c1cccc(C)c1CO/N=C(\C)c1ccc(Cl)nn1 [Example 91] | 98 | 88 | 53 | 90 | – | – | – | –
24 | CO/N=C(/C(=O)OC)c1cccc(C)c1CO/N=C(\C)c1cnc(C)c(F)c1 [Example 100] | 97 | 90 | – | 73 | – | – | – | –
25 | CNC(=O)/C(=N/OC)c1cccc(C)c1CO/N=C(\C)c1cnc(C)c(F)c1 [Example 101] | 67 | 32 | 97 | 77 | – | – | – | –
26 | CO/N=C(/C(=O)OC)c1cccc(C)c1CO/N=C(\C)c1cncn1C [Example 102] | 100 | 100 | 100 | 100 | – | – | – | –
27 | CO/N=C(/C(=O)OC)c1ccccc1CO/N=C(\C)c1cccc(C(F)(F)F)c1 [Trifloxystrobin, trifloxy-strobin, reference compound] | – | – | – | – | 97 | 100 | 37 | 53
